The target of this assay is T1, EGFR (Homo sapiens, UniProt P00533).
T1 construct: endogenous in cells; host or cells: DU145
Briefly: EGFR immunoprecipitation and anti-phosphotyrosine immunoblot in DU145 cells. The assay is classed as cell-based. As to conditions: pre-incubation with AG1478. Here is the method:
9. […] DU145 cells were seeded and pre-incubated with (A) EGFR inhibitor tyrphostin AG1478 (100 nM) or cyclohexamide (100 μg/ml) and (B) EGFRmAb-528, or EGFRpAb-1005 for 1 hour before the EGF- or HF-treatment. After 15 min treatment, cells were lysed and immunoblotted with anti-phospho ERK1/2 and antiERK1/2 antibodies. (C) Effect of the EGF receptor (EGFR) inhibitor, tyrphostin AG1478, on HF-mediated tyrosine phosphorylation of the EGFR. Serum-Starved DU145 cells were pre-incubated with 100 μM AG1478 prior to stimulation with 10 ng/ml EGF, 1 μM HF or 10 nM of DHT for 20 min. EGFR was immunoprecipitated from the cell lysates, and their phosphotyrosine level was determined by anti-phosphotyrosine antibody. All the results were visualized using enhanced chemiluminescence.
200. Serum-stared and treated DU145 cells were lysed with RIPA buffer for 30 min on ice. Lysates were then centrifuiged at 12,000 g for 10 min at 4° C. and protein concentrations were determined by the Bradford assay. 500 μg of cell lysates were incubated for 4 hours with either anti-Ras or anti-EGFR antibody (1/100, Santa Cruz Biotechnology) to the protein-antibody mixture and then added in 20 μl of protein A/G plus-agarose (Santa Cruz Biotechnology) for another 4 hours incubation with constant rotation. […]
On the technique in general: A western blot detects proteins with antibodies after separation by electrophoresis.

SMILES strings stand for the structures.

`COc1cc2ncnc(Nc3cccc(Cl)c3)c2cc1OC` [AG1478]: the “inhibition of EGF- and HF-mediated EGFR autophosphorylation” value was “can inhibit both EGF- and HF-mediated EGFR autophosphorylation”; the “total EGFR concentration” value is “without affecting total EGFR concentration”.
